Assays:
[1] = Selectivity ratio of human ICE to caspase 4
[2] = Selectivity ratio of human ICE to caspase 6
[3] = Selectivity ratio of human ICE to caspase 8
[4] = Selectivity ratio of human ICE to caspase 3

Work on `O=C[C@H](CC(=O)O)NC(=O)[C@@H]1CCCN2C(=O)CC[C@H](NC(=O)c3nccc4ccccc34)C(=O)N12` [VRT-18858] yielded a Selectivity ratio [1] of 53, a Selectivity ratio [2] of 53 and a Selectivity ratio [3] of 53. The Selectivity ratio [4] was 53.

In the case of `CC(C)[C@H](CC(=O)NCCc1cccc2ncccc12)C(=O)N[C@H](C=O)CC(=O)O`, the Selectivity ratio [1] is reported as > 200, the Selectivity ratio [2] is reported as > 200 and the Selectivity ratio [3] is reported as > 200. For the same compound, the Selectivity ratio [4] was > 200.

In the case of `Cc1[nH]c2ccccc2c1CCNC(=O)C[C@H](C(=O)N[C@H](C=O)CC(=O)O)C(C)C`, the Selectivity ratio [1] is reported as > 200, the Selectivity ratio [2] is reported as > 200 and the Selectivity ratio [3] is reported as > 200. For the same compound, the Selectivity ratio [4] was > 200.
